The text below walks through data of patent US8889379B2, “Biocatalytic production of glycosides” (Universiteit Gent, priority 2010, dated 2014).

For this data set, the system named is cellobiose. Nature of the data set: purified protein, by the assay type. The note with it: other: synthetic reaction, 50 mM MES buffer pH 6.5 at 45° C.

For the substance “cellodextrin phosphorylase from Clostridium stercorarium (CsCDP) (Thermoclostridium stercorarium subsp. stercorarium DSM 8532)”, the Km worked out at 447 ± 5 µM, the kcat is 18.1 s⁻¹ and the kcat/Km stood at 40000 M⁻¹ s⁻¹.
